# Experimental data: patent US20240011027A1, “METHODS AND COMPOSITIONS FOR RESTORING STMN2 LEVELS” (President and Fellows of Harvard College, priority 2020, published 2024)
# Where a SMILES comes first, the peptide text is derived from it. The star is where a group is joined. Cbz = O=C(OCc1ccccc1)*
# Test system: motor neurons
# Assay: Cell Titer Glo neuronal survival with MG-132
# Details: indicated concentrations and times
compound,measurement,value
CC(C)C[C@@H](C=O)NC(=O)[C@H](CC(C)C)NC(=O)[C@H](CC(C)C)NC(=O)OCc1ccccc1 [MG-132] (Cbz-Leu-Leu-Leu-aldehyde),neuronal survival (viability),viable after 1 day of treatment at all the concentrations tested
